# The entries are a selection whose mix differs from that of the whole data set. The source made the active and inactive calls.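 How the source made its calls: active means visual image review flags a hit and inhibition of aggregation exceeds 20%; inconclusive means visual hit but inhibition at or below 20%; inactive means no hit on visual image review.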
# Assay: reduction of polyQ htt aggregates in cells – imaging, exon1htt(103Q)mCFP cells, high-content imaging, primary screen (AID 483);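 further: compound exposure lasted 3 days before fixation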
# Conditions: exon1htt(103Q)mCFP cell line, aggregate imaging; at 2 µM; stronger effect = higher value
row,Structure (SMILES),inhibition of aggregation
1,O=C(COc1ccccc1)OC1CN2CCC1CC2 (stereo not given),inactive: -2.6%
2,COP1(=S)c2c(C)nn(CCC#N)c2N=C(c2ccc(F)cc2)N1C (stereo not given),inactive: -11.4%
3,Cc1nn(-c2ccccc2)c2c1P(=O)(N1CCOCC1)N(C)C(c1ccccc1)=N2 (stereo not given),inactive: -16%
4,CCOP1(=S)c2c(C)nn(CCC#N)c2N=C(c2ccccc2F)N1C (stereo not given),inactive: 10.7%
5,O=P(Nc1nccs1)(c1ccccc1)c1ccccc1,inactive: 9.8%
